Source: PubChem BioAssay
TDP1 block = blocks human tyrosyl-DNA phosphodiesterase 1 | recombinant TDP1, AlphaScreen DNA substrate cleavage | Potency, µM (top dose mostly 130 µM), hits mostly inhibitors | 350,000 compounds, 0.28% hits; note: nearly all actives have a fitted effect of over 40% in size
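Steps: enzyme plus compound, 15 min RT; add biotin/phosphotyrosine-FITC oligonucleotide (15 nM final), react 5 min; add donor/acceptor beads (10 ug/ml final), 10 min; read AlphaScreen. Tdp1 at 1 nM final.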
DT40 TDP1 CPT = DT40-hTDP1 cell growth loss with CPT; 420,000 compounds, 12% hits; Potency, µM (titrated, usually from 46.2 µM), actives largely listed as inhibitors; chicken DT40 Tdp1-/-;hTDP1 cells + 20 nM CPT, ATP luminescence, 48 h; AID 686979; note: nearly all actives have a fitted effect of over 55% in size
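Cell growth measured by CellTiter-Glo luminescence after a minimum 48 h, 37 C compound exposure with 20 nM CPT in Tdp1-knockout DT40 cells stably expressing hTDP1, seeded 400/well; qHTS titration format.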
uPA generation = cell surface uPA generation inhibition. AID 540303. Potency, µM (titrated, usually from 38.3 µM), most hits filed as inhibitors. cell surface uPA generation assay, qHTS. 330,000 compounds, 0.31% hits; active = well fitted inhibition curve with a large enough effect; inconclusive = small, poorly fitted or top-dose-only effect; inactive = no such curve, though single readings can be large or run the other way; tested in mouse RAW 264.7 cells; note: nearly all actives have a fitted effect of over 55% in size
DT40 TDP1 no CPT = qHTS for Inhibitors of human tyrosyl-DNA phosphodiesterase 1 (TDP1): qHTS in cells in absence of CPT | Potency, µM (series often up to 46.2 µM), most hits filed as inhibitors | AID 686978, 2013 | DT40 Tdp1-/- hTDP1 cells, no CPT, ATP luminescence, 48 h | 420,000 compounds, 15% hits; note: nearly all actives have a fitted effect of over 55% in size
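No-CPT arm: Tdp1-/-;hTDP1 DT40 cells (400/well) plus compounds, incubated ≥48 hr at 37 °C. Readout CellTiter-Glo luminescence.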
miR-21 reporter = raises the signal of a miR-21 reporter | HeLa miR-21 FLuc reporter, luciferase, 48 h | Potency, µM (highest dose often 38.3 µM) | 340,000 tested, under 10 active | AID 2288; active = well fitted rising curve with a large enough effect; inconclusive = small, poorly fitted or top-dose-only effect; inactive = no such curve, though single readings can be large or run the other way;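 also: miR-21 action dims this reporter so a rising signal means less miR-21 action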
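Using DMEM plus 10% FBS, HeLa miR-21-FLuc cells are incubated with test compounds (final up to about 40uM) for 48 hours; firefly luciferase signal is then imaged following reagent-mediated lysis.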
Large screens that a line does not name were inactive; ! = a repeat was not active. Rows were chosen to be rich in hits. Some 16% of all compounds tested hit in one or more screens of this group. Unless noted, calls come from the whole dose curve; as a rule, active = well fitted curve in the direction sought with a large enough effect; inconclusive = small, poorly fitted or top-dose-only effect, or another doubt; inactive = no such curve, though single readings can be large; an effect the other way counts as inactive or inconclusive.

CC1CCc2cc(F)cc3c(=O)c(C(=O)O)cn1c23 (stereo unspecified)	DT40 TDP1 no CPT inconclusive
O=c1[nH]c(=O)n(-c2ccc(Cl)cc2)c(O)c1C=Nc1ccc(S(=O)(=O)Nc2nccs2)cc1	none
Clc1cccc(/C=N\Nc2nccs2)c1	DT40 TDP1 CPT 15µM, DT40 TDP1 no CPT 4.6µM
CC(C)c1ccc(NC(=O)C2CCC(CNS(=O)(=O)c3ccc4c(c3)CCCC(=O)N4)CC2)cc1 (stereo unspecified)	DT40 TDP1 CPT 13µM, DT40 TDP1 no CPT 16µM (no result: uPA generation)
N#CN	none (no result: uPA generation, miR-21 reporter)
C=CCCC1(CC)C(=O)NC(=S)NC1=O	none (no result: TDP1 block, miR-21 reporter)
Cc1ccc(C(C)C)c(OCC(=O)N2CCN(CCc3ccncc3)CC2)c1	DT40 TDP1 CPT inconclusive, DT40 TDP1 no CPT inconclusive (no result: uPA generation)
O=C(Nc1cccc(C(F)(F)F)c1)OC1CN2CCC1CC2 (stereo unspecified)	DT40 TDP1 CPT inconclusive, DT40 TDP1 no CPT inconclusive (no result: TDP1 block)
O=C(Nc1ccc(Cl)c(C(F)(F)F)c1)C1CCCN(S(=O)(=O)c2cccc3cccnc23)C1 (stereo unspecified)	DT40 TDP1 CPT 7.3µM, DT40 TDP1 no CPT 6.5µM (no result: uPA generation)
CC1(C)C(c2ccccc2)=NC(c2cccnc2)N1O (stereo unspecified)	DT40 TDP1 CPT inconclusive, DT40 TDP1 no CPT inconclusive (no result: uPA generation)
C[C@@H]1O[C@@H](O[C@H]2C[C@@H](O)[C@]3(CO)[C@H]4[C@H](O)C[C@]5(C)[C@@H]([C@@H]6COC(=O)C6)CC[C@]5(O)[C@@H]4CC[C@]3(O)C2)[C@H](O)[C@H](O)[C@H]1O	none (no result: DT40 TDP1 CPT, uPA generation, DT40 TDP1 no CPT, miR-21 reporter)
CN[C@@H](C)[C@H](O)c1ccccc1	none (no result: uPA generation, miR-21 reporter)
C[C@@H]1CN(CCCn2c3ccccc3c3ccccc32)C[C@H](C)N1	DT40 TDP1 CPT 7.5µM, DT40 TDP1 no CPT 8.4µM, miR-21 reporter inconclusive (no result: uPA generation)
C[N@+]12CCCC[C@@H]1CCC(=C(c1cccs1)c1cccs1)C2	DT40 TDP1 CPT 27µM, DT40 TDP1 no CPT 19µM (no result: TDP1 block, uPA generation, miR-21 reporter)
O=[N+]([O-])c1ccc(S(=O)(=O)NCC(c2ccco2)N2CCc3ccccc3C2)cc1 (stereo unspecified)	DT40 TDP1 no CPT inconclusive (no result: miR-21 reporter)
NC(=O)c1ccc(N=Cc2c(O)n(Cc3ccco3)c(=O)[nH]c2=O)cc1	TDP1 block 28µM
Nc1ccc([N+](=O)[O-])cc1O	DT40 TDP1 CPT 24µM, DT40 TDP1 no CPT 22µM (no result: uPA generation, miR-21 reporter)
CC(C)N(CC[C@@](C(N)=O)(c1ccccc1)c1ccccn1)C(C)C	none (no result: DT40 TDP1 CPT, uPA generation, DT40 TDP1 no CPT, miR-21 reporter)
C#CCN1CC(=O)N(COC(=O)[C@@H]2[C@@H](C=C(C)C)C2(C)C)C1=O	none (no result: DT40 TDP1 CPT, uPA generation, DT40 TDP1 no CPT, miR-21 reporter)
COc1ccc(-n2c(/C=C/c3cccc(F)c3)nc3ccccc3c2=O)c(OC)c1	DT40 TDP1 CPT 13µM, DT40 TDP1 no CPT inconclusive (no result: TDP1 block)
COc1ccc(-n2c(/C=C/c3cccc(F)c3)nc3ccccc3c2=O)cc1Cl	DT40 TDP1 CPT 21µM, DT40 TDP1 no CPT inconclusive (no result: uPA generation)
COc1ccc(-n2c(CN3CCOCC3)nc3ccccc3c2=O)c(OC)c1	DT40 TDP1 CPT inconclusive, DT40 TDP1 no CPT inconclusive (no result: TDP1 block)
CCN[C@@H](C)Cc1ccccc1	none (no result: TDP1 block, uPA generation, miR-21 reporter)
O=C1CC(N2CCC(n3c(=O)[nH]c4ccccc43)CC2)C(=O)N1c1ccc(F)cc1 (stereo unspecified)	none
N#Cc1ccc2nc(-c3ccc(CN4CCC(n5c(=O)[nH]c6ccccc65)CC4)cc3)c(-c3ccccc3)nc2c1	DT40 TDP1 CPT 5.8µM, DT40 TDP1 no CPT 9.2µM (no result: TDP1 block, uPA generation, miR-21 reporter)
Cc1cccc2nc(-c3ccccc3)c(-c3ccc(CN4CCC(n5c(=O)[nH]c6ccccc65)CC4)cc3)nc12	DT40 TDP1 CPT 9.2µM, DT40 TDP1 no CPT 13µM (no result: TDP1 block, uPA generation, miR-21 reporter)
C/C=C(/C)C(=O)OC1CC[C@]2(C)C3CCC4[C@]5(O)CC(O)[C@]6(O)C(CN7CC(C)CCC7[C@]6(C)O)[C@]5(O)C[C@@]42O[C@]13O (stereo partly specified)	none (no result: uPA generation, miR-21 reporter)
c1ccc(CN2CCC(Nc3nc(-c4cccs4)nc4ccccc34)CC2)cc1	DT40 TDP1 CPT 8.2µM, uPA generation inconclusive, DT40 TDP1 no CPT 18µM
COc1ccc2c3c1O[C@H]1C(=O)CC[C@H]4[C@@H](C2)N(C)CC[C@]314	DT40 TDP1 no CPT inconclusive (no result: miR-21 reporter)
BrCC(Br)C1CCC(Br)C(Br)C1 (stereo unspecified)	TDP1 block 32µM!, DT40 TDP1 CPT inconclusive (no result: miR-21 reporter)
CCC1=C(C)C(N2CCOCC2)=NP(N2CCOCC2)(N2CCOCC2)=N1	none
